Compounds with a hit are over-represented: about 2.3% of the library has one in this group of screens.
MC4R ag barr = human MC4R agonism via beta-arrestin | AID 540308 | 360,000 compounds, 0.98% hits | activation, % at 8.9 µM | U2OS MC4R beta-arrestin complementation, luminescence; percent of melanotan II response, DMSO zero | P32245;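 active = activation above a per-plate cutoff, the mean activation of sample wells on that plate plus 3 SD, cut at about 8% in these data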
Yeast UUG start = yeast start codon fidelity modulation | S. cerevisiae UUG-firefly luciferase reporter, luminescence/redox ratio | activity score, % at 18.7 µM | 0.13% of 350,000 active | AID 602363;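 active means replicate mean at a twofold rise or more, about +100% in these data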;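 further: firefly luciferase made from a UUG start codon reports start codon fidelity; reporter light over untreated wells divided by growth signal over untreated wells; some hits fall short of that in this replicate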
ASAP1 inh = blocks human ASAP1-stimulated Arf1 GTP hydrolysis | Q9ULH1 | GDP FP detection | inhibition, % at 16.5 µM | 360,000 compounds, 0.19% hits | AID 624377; in the data active = inhibition above about 25%;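 note: 0% = vehicle with enzyme and substrate and 100% = no enzyme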
CendR NRP1 mod = modulators of CendR peptide binding to human neuropilin-1 | O14786 | FAM-RPARPAR peptide binding to NRP-1, fluorescence polarization | inhibition, % at 25 µM | 360,000 compounds, 0.85% hits | AID 602438;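 active = inhibition or corrected inhibition above about 18%, plus a signal ratio from 0.5 to 1.5, limit read from the data, passing the limit was not always enough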
ARFGAP1 inh = inhibits rat ARF GTPase activating protein 1; Arfgap1-stimulated ARF1 GTP hydrolysis, GDP FP detection; inhibition, % at 16.5 µM; 360,000 compounds, 0.26% hits; AID 651572;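 active = inhibition above a per-plate limit, mean inhibition of low control wells plus 3 SD, cut at about 25% in these data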;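 note: 0% = DMSO wells with enzyme and 100% = wells lacking Arfgap1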
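System: truncated rat Arfgap1 GAP domain / Benchmarks: high control wells lacking Arfgap1, low control full reaction with DMSO / Times: compound-enzyme preincubation 20 min, reaction 120 min, detection 60 min, 25 °C / Repeats: one replicate per compound / Also added: human ARF1(Δ1-17)-GTP substrate / Measured by: Tracer-displacement fluorescence polarization with EDTA stop, 620/688 nm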
MC4R antag cAMP = human MC4R antagonism in cAMP assay; 360,000 compounds, 0.48% hits; inhibition, % at 6.5 µM; P32245; MC4R-expressing cells, MTII-stimulated cAMP, LANCE TR-FRET;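 active = inhibition above its plate's cutoff, the mean of tested wells on that plate plus 3 SD, cut at about 29% in these data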;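 note: 0% = Melanotan II alone and 100% = Melanotan II plus saturating MCL0020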
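Assay system: U2OS-MC4R stable cell line; Also added: Melanotan II; Technique: Eu-cAMP/anti-cAMP TR-FRET, emission 671 nm; Times: 30-min compound, 1-h challenge, 1-h detection, room temperature.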
The depositor's hits bear a star; / = not tested or not shown.

Letter code: A = MC4R ag barr; B = Yeast UUG start; C = ASAP1 inh; D = CendR NRP1 mod; E = ARFGAP1 inh; F = MC4R antag cAMP
CCc1ccc(NS(=O)(=O)c2c(C(=O)N3CCCCCC3)c(C)n(C)c2C)cc1
  A = -2	B = -6	C = -2	D = 28*	E = 0	F = -3

Cc1ccc(NS(=O)(=O)c2c(C(=O)N3CCCCCC3)c(C)n(C)c2C)c(C)c1
  A = -1	B = 0	C = 7	D = 26*	E = 5	F = 1

N#C[C@@H]1[C@@H](c2ccc(-c3cncnc3)cc2)[C@H](CO)N1C(=O)C1CCC1
  A = /	B = -4	C = /	D = /	E = /	F = /

O=C(C[C@@H]1CC[C@@H](NC(=O)Nc2ccc3c(c2)OCO3)[C@H](CO)O1)NCc1ccc(F)cc1
  A = /	B = -16	C = /	D = /	E = /	F = /

COc1cccc(CNC(=O)C[C@H]2C=C[C@H](NC(=O)C3CC3)[C@@H](CO)O2)c1
  A = /	B = -7	C = /	D = /	E = /	F = /

O=C(NCCCN1CCCC1)C1CCC(=O)N1C1CCCCC1 (centres undefined)
  A = 0	B = -8	C = 7	D = 7	E = 5	F = -3

CC1CC(C)CN(CCCNC(=O)C2CCC(=O)N2C2CCCC2)C1 (centres undefined)
  A = 5	B = -16	C = -9	D = -4	E = 32*	F = -7

CO[C@H]1CN(C)C(=O)c2ccc(NC(=O)c3ccccc3)cc2OC[C@H](C)N(C(C)=O)C[C@H]1C
  A = /	B = 3	C = /	D = /	E = /	F = /

COc1ccc(C(=O)O/N=C(\N)c2ccccc2)c(OC)c1
  A = -2	B = /	C = -10	D = 18*	E = -10	F = 6

COc1cccc(C(=O)O/N=C(\N)c2ccc([N+](=O)[O-])cc2)c1OC
  A = 8.6*	B = -13	C = 0	D = 25*	E = -8	F = 1

COc1ccc(C(=O)O/N=C(\N)c2ccc(OC)c(OC)c2)c(OC)c1
  A = -1	B = 6	C = /	D = 5	E = /	F = 1

CCCN(C)C[C@@H]1Oc2cc(C#C[C@@H](C)O)ccc2S(=O)(=O)N([C@H](C)CO)C[C@@H]1C
  A = /	B = 7	C = /	D = /	E = /	F = /

Cc1ccc(S(=O)(=O)NC(C)(C)CN2CCC(Cc3ccccc3)CC2)cc1
  A = 8.4*	B = 7	C = -1	D = -4	E = -5	F = 16

C[C@H](CO)N1C[C@H](C)[C@@H](CN(C)Cc2ccc(C(F)(F)F)cc2)Oc2c(NS(=O)(=O)c3ccc(F)cc3)cccc2C1=O
  A = /	B = 2	C = /	D = /	E = /	F = /

CC(C)(C)NC(=O)NC12CC3CC(CC(C3)C1)C2
  A = -3	B = /	C = -2	D = 22*	E = 4	F = -2

CC(C)(C)OC(=O)NNC(=O)NC12CC3CC(CC(C3)C1)C2
  A = 1	B = /	C = -3	D = 9	E = 9	F = 3

C[C@@H]1CN([C@H](C)CO)C(=O)Cc2cc(NC(=O)NC3CCCCC3)ccc2O[C@@H]1CN(C)Cc1ccc2c(c1)OCO2
  A = /	B = -7	C = /	D = /	E = /	F = /

O=C(Nc1cccc(NC(=O)c2c(F)cccc2F)n1)c1c(F)cccc1F
  A = 0	B = /	C = 14	D = 4	E = 25*	F = 3

O=C(Nc1cccc(NC(=O)c2cccc(F)c2)n1)c1cccc(F)c1
  A = 3	B = 0	C = 1	D = -1	E = -1	F = 19

O=C(CN(C(=O)CNC(=O)c1ccco1)c1ccc2c(c1)OCO2)NC1CCCCC1
  A = 0	B = -15	C = -9	D = 10	E = 0	F = 8

O=C(CN(C(=O)CNC(=O)c1ccco1)c1ccc2c(c1)OCCO2)NC1CCCC1
  A = -2	B = /	C = -3	D = 21*	E = -6	F = 2

Cc1noc(C)c1NC(=O)Nc1ccc2c(c1)C(=O)N([C@H](C)CO)C[C@H](C)[C@H](CN(C)Cc1ccc(C(F)(F)F)cc1)OCCCC[C@@H](C)O2
  A = /	B = 2	C = /	D = /	E = /	F = /

CCN(CC(=O)Nc1cccc(C(C)=O)c1)S(=O)(=O)c1ccc(C)cc1
  A = -2	B = 9	C = 17	D = 43*	E = 2	F = 13

COc1ccc(NC(=O)Nc2ccc3c(c2)C(=O)N([C@@H](C)CO)C[C@@H](C)[C@H](CN(C)CC2CCCCC2)OCCCC[C@H](C)O3)cc1
  A = /	B = 16	C = /	D = /	E = /	F = /

C[C@H]1CCCCO[C@@H](CN(C)S(=O)(=O)c2cccs2)[C@@H](C)CN([C@@H](C)CO)C(=O)c2cc(NC(=O)Nc3ccc(F)cc3)ccc2O1
  A = /	B = -7	C = /	D = /	E = /	F = /

Structural class: the compounds so far containing a tert-butyl group (two)
Letter code: A = MC4R ag barr; B = Yeast UUG start; C = ASAP1 inh; D = CendR NRP1 mod; E = ARFGAP1 inh; F = MC4R antag cAMP
CC(C)(C)NC(=O)NC12CC3CC(CC(C3)C1)C2
  A = -3	B = /	C = -2	D = 22*	E = 4	F = -2

CC(C)(C)OC(=O)NNC(=O)NC12CC3CC(CC(C3)C1)C2
  A = 1	B = /	C = -3	D = 9	E = 9	F = 3

New compounds follow.
Letter code: A = MC4R ag barr; B = Yeast UUG start; C = ASAP1 inh; D = CendR NRP1 mod; E = ARFGAP1 inh; F = MC4R antag cAMP
COc1ccccc1-c1noc(Cn2cc(S(=O)(=O)N3CCCC3)ccc2=O)n1
  A = -2	B = 8	C = -12	D = 18*	E = -3	F = -7

COc1ccccc1Oc1ccc(S(=O)(=O)N2CCCC2)cc1
  A = 0	B = /	C = /	D = -2	E = /	F = 9

O=C(O)c1ccc(CSc2nnc(COc3ccccc3)o2)cc1
  A = -1	B = /	C = 13	D = 22*	E = -9	F = 10

CCc1ccc(OCc2nnc(SCc3ccc(C(=O)O)cc3)o2)cc1
  A = 3	B = -10	C = -4	D = 12	E = -2	F = -3

COc1ccc(C)cc1Cn1nnc2ccccc21
  A = -2	B = -26	C = -2	D = 10	E = 5	F = 0

COc1cc(Cn2nnc3ccccc32)cc(Br)c1O
  A = -1	B = 2	C = 8	D = 23*	E = 5	F = -5

CCCCSC(=S)NC1CCS(=O)(=O)C1 (centres undefined)
  A = -1	B = -9	C = 3	D = 25*	E = -5	F = -4

COc1ccc(OC)c(NC(=O)Nc2c(O)ccc3ccccc23)c1
  A = 0	B = -6	C = -3	D = -12	E = -11	F = 4

COc1ccc(OC)c(NC(=O)Nc2ccc(O)c3ccccc23)c1
  A = -3	B = -18	C = -11	D = 25*	E = -1	F = 0

OCCC1CCCCN1CC(O)COCc1ccc(Cl)cc1 (centres undefined)
  A = -3	B = /	C = -1	D = 21*	E = 3	F = 0

O=C(NCCC1=CCCCC1)c1ccc(=O)oc1
  A = 0	B = -4	C = -10	D = 51*	E = 3	F = 2

CSc1nc2ccccc2c(=O)n1C1CCOC(C)(C)C1 (centres undefined)
  A = -1	B = /	C = -6	D = 28*	E = -5	F = 4

COc1ccc(NC(=O)N(C)C[C@@H]2Oc3ccc(NS(=O)(=O)c4c(C)noc4C)cc3CC(=O)N([C@@H](C)CO)C[C@H]2C)cc1
  A = /	B = 4	C = /	D = /	E = /	F = /

c1ccc(C(c2nnnn2Cc2ccco2)N2CCN(c3nc4ccccc4s3)CC2)cc1 (centres undefined)
  A = -1	B = -5	C = 0	D = 46*	E = 7	F = 15

c1ccc(Cn2nnnc2C(c2ccccc2)N2CCN(c3nc4ccccc4s3)CC2)cc1 (centres undefined)
  A = -1	B = -18	C = 10	D = 6	E = 7	F = 11

COc1ccc(NC(=O)Nc2ccc3c(c2)[C@@H]2C[C@H](CC(=O)N4CCOCC4)O[C@H](CO)[C@@H]2O3)cc1
  A = /	B = -2	C = /	D = /	E = /	F = /

O=C(C[C@H]1C=C[C@H](NS(=O)(=O)c2ccc(F)cc2)[C@@H](CO)O1)NCCN1CCCCC1
  A = /	B = -1	C = /	D = /	E = /	F = /

N=c1n(Cc2ccc(Cl)cc2)c2ccccc2n1CC(O)COc1ccccc1 (centres undefined)
  A = 12*	B = 1	C = 2	D = 11	E = 1	F = -10

COc1ccc(OCC(O)Cn2c(=N)n(Cc3ccccc3)c3ccccc32)cc1 (centres undefined)
  A = 0	B = 5	C = 7	D = -5	E = -3	F = -2

Cc1nnc(SCCOc2ccccc2)s1
  A = 1	B = /	C = -7	D = 51*	E = -8	F = 3

CS(=O)(=O)N1CCN(c2ccccc2NC(=O)Cc2ccccc2)CC1
  A = 0	B = -14	C = -10	D = -7	E = 4	F = 0
